This passage reports IC50 results from PubChem BioAssay AID1985 (Southern Research Specialized Biocontainment Screening …, 2009).

Structures are written as SMILES.

This test concerns S. Typhi PhoP-promoter GFP reporter, fluorescence, 4 h. The experiment in a line: PhoP regulon inhibitor project modified counter assay, GFP fluorescence readout, dose response (AID 1985).

The term IC50 denotes the point on the concentration scale where inhibition reaches its midpoint. `CCOC(=O)c1cn(CC)c2cc(N3CCN(C)CC3)c(F)cc2c1=O`: the half-inhibitory concentration (IC50) was 115 µM.

For `O=C(N/N=C/c1ccc([N+](=O)[O-])o1)C1CC1`, the half-maximal inhibitory concentration (IC50) is 22 µM.

For the compound `CC(C)(C)c1nnc(N/N=C/c2cc(Br)ccc2O)n(N)c1=O`, the IC50 is 28.8 µM.

For `O=C(NNC(=S)Nc1ccc(Cl)c(Cl)c1)c1ccccn1`, the IC50 is 18.4 µM.

As for `O=C(Nc1cccnc1)c1ccc([N+](=O)[O-])o1`, the IC50 was 15.9 µM.
